Results from PMC6355801, “The compound TB47 is highly bactericidal against Mycobacterium ulcerans in a Buruli ulcer mouse model” (Nature Communications, 2019).

Tested on: M. smegmatis
Assay: MIC by microplate Alamar blue assay, M. smegmatis wild-type and recombinant strains
Conditions: M. smegmatis before deletion of cydAB (wild-type)

SMILES: COc1ccn2nc(C)c(C(=O)NCc3ccc(N4CCC(c5ccc(OC(F)(F)F)cc5)CC4)cc3)c2c1 [TB47]
- MIC: 50 µg/mL
